For this test, the target named is soluble human BACE1 catalytic domain (Homo sapiens (Human), UniProt P56817). The test can be described thus: BACE1 HTRF FRET Assay. Type of test: biochemical. The settings on record: Ki calculated from IC50 using the Cheng-Prusoff equation; QSY7-APPswe-Eu substrate, pH 5.0. From the text: A homogeneous time-resolved FRET assay can be used to determine IC50 values for inhibitors of the soluble human BACE1 catalytic domain. This assay monitors the increase of 620 nm fluorescence that resulted from BACE1 cleavage of an APPswedish APP^swe mutant peptide FRET substrate (QSY7-[…]-Europium-amide). This substrate contains an N-terminal QSY7 moiety that serves as a quencher of the C-terminal Europium fluorophore (620 nm Em). In the absence of enzyme activity, 620 nm fluorescence is low in the assay and increased linearly over 3 hours in the presence of uninhibited BACE1 enzyme Inhibition of BACE1 cleavage of the QSY7-APP^swe-Eu substrate by inhibitors is manifested as a suppression of 620 nm fluorescence.
Reactions are initiated by addition of 10 μl of 600 nM QSY7-APP^swe-Eu substrate (200 nM final) to give a final reaction volume of 30 μl in a 384 well Nunc HTRF plate. The reactions are incubated at 30° C. for 1.5 hours. The 620 nm fluorescence is then read on a Rubystar HTRF plate reader (BMG Labtechnologies) using a 50 millisecond delay followed by a 400 millisecond acquisition time window Inhibitor IC50 values are derived from non-linear regression analysis of concentration response curves.

The chains behind the UniProt entries cited, without tags or fusion partners. Residues count along the entry.
UniProt P56817, 75-416: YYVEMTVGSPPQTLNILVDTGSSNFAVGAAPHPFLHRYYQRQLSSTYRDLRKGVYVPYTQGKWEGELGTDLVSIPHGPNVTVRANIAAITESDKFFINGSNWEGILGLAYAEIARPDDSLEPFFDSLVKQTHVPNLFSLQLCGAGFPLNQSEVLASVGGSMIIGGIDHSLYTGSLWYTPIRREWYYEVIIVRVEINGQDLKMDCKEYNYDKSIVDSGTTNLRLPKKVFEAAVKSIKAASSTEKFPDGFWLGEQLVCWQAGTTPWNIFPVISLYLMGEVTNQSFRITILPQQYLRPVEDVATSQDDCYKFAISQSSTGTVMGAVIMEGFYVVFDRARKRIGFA

One may read the pKi as −log10 of the Ki, conventionally taken in molar units.

pKi: −log10 of the molar value.

`COc1cnc(C(=O)Nc2ccc(F)c([C@]34COC(CF)[C@H]3S(=O)(=O)C(C)(C)C(=N)N4)c2)cn1` (single isomer, unassigned) [Example 4e]: the pKi was 8.40.
Under `COc1cnc(C(=O)Nc2ccc(F)c([C@]34COC(CF)[C@H]3S(=O)(=O)C(C)(C)C(=N)N4)c2)cn1` (single isomer, unassigned) [Example 4h] stands 6.69.

These data come from US9365589B2, “C5, C6 oxacyclic-fused thiazine dioxide compounds as BACE inhibitors, compositions, and their use” (Merck Sharp & Dohme Corp., priority 2012, dated 2016).
